Values of other authors in article PMC8882856.

Key:
human α1A‐adrenoceptor = settings: read-out: α1A‐adrenoceptor affinity; identical whole cell method; ref [33]; cited from earlier work
human β3‐adrenoceptor = settings: read-out: β3 affinity; ref [31], [32]; cited from earlier work

Row | Compound | Kd (human α1A‐adrenoceptor) | Kd (human β3‐adrenoceptor)
1 | COc1ccccc1OCCNCC(O)COc1cccc2[nH]c3ccccc3c12 (stereo not drawn) [carvedilol] | 4 nM | 5 nM
2 | CC(CCc1ccccc1)NCC(O)c1ccc(O)c(C(N)=O)c1 (stereo not drawn) [labetolol] | 47 nM | 
